Patent US20050013875A1, “Immunopotentiators in thermotherapy for cancer” (priority 2001, published 2005)

Assay: Body weight change of rats under hyperthermia
Format: in vivo, rat
Settings: (GGA+AMF) Group: MCL and GGA administered, three magnetic field irradiations; control with neither MCL nor GGA and no irradiation; FIG. 4
Protocol: As experimental individuals, F344 rats (female, 7 to 8-weeks old) were used. MFH cells 1×10^7 cultured on Petri dish for cell-cultivation were dispersed in about 50 μl of a physiologically buffered saline, and then, the cells suspension was transplanted subcutaneously to a right leg of an experimental individual by using a scalp vein needle (25G×5/8″) (Terumo Corporation) to make a cancer-carried experimental individual. Nembutal (available from Dainippon Pharmaceutical Co., Ltd.) was used for anesthesia, and that diluted to five times (50 mg/kg body weight) was administered to abdominal cavity.
Under anesthesia of a rat, MCL with a concentration of 7.5 mg/ml and 3.3 mg of net weight magnetite was administered to the tumor tissue of the rat 10 days after transplantation of the MFH cells over 30 minutes by using a microsyringe pump (SP100i syringe pump, manufactured by WPI Co.), and thereafter, the rat was allowed to stand for 30 minutes. Magnetic field irradiation was carried out after 24 hours from injection of the MCL.
To 500 mg of Gum Arabic powder was adhered 1 g of GGA, 0.5% of Tween 80 solution was gradually added to the above mixture, to emulsify the mixture under stirring, and a final volume thereof was adjusted to 10 ml. […]

For geranylgeranyl acetone [GGA], which “body weight change compared with Control Group” value is on record?
The value was “substantially the same”.
